Values quoted from earlier work, collected in patent US9732053B2, “1-[2-(2,4-dimethylphenylsulfanyl) phenyl]piperazine acetate in crystalline form” (LEK PHARMACEUTICALS D.D., priority 2013, dated 2017).

Conditions: room temperature; data from WO 2007/144005 A1 and WO 2010/121621 A1; cited from earlier work
In the case of L-(+)-tartrate, the Aqueous solubility is given as “≈0.4 mg base/mL”. For D-(−)-tartrate, the Aqueous solubility is given as “≈0.4 mg base/mL”. For meso-tartrate, the Aqueous solubility is given as “≈0.7 mg base/mL”.
